Data: ChEMBL document CHEMBL4840365, “BMS-813160: A Potent CCR2 and CCR5 Dual Antagonist Selected as a Clinical Candidate” (ACS Med Chem Lett, 2021)

Assay: Antagonist activity at CCR2 in human THP-1 cells assessed as reduction in CCL2-induced chemotaxis

IC50: 0.7 nM
Compound: CC(=O)N[C@@H]1C[C@H](N(C)C(C)C)CC[C@@H]1N1CC[C@H](Nc2ncnc3ccc(C(F)(F)F)cc23)C1=O
